The values that follow are results of earlier work, collected in patent publication US20210128584A1, “USE OF GLUCOCORTICOID RECEPTOR ANTAGONISTS FOR THE TREATMENT OF AMYOTROPHIC LATERAL SCLEROSIS” (Corcept Therapeutics Incorporated, priority 2008, published 2021).

The test system of the data set is Amyotrophic lateral sclerosis (ALS). Particulars: ALS patients.

In the case of `Nc1nc2ccc(OC(F)(F)F)cc2s1` [Riluzole], the prolongation of survival result is listed as “two to three”.
